According to PubChem BioAssay AID727 (The Scripps Research Institute Molecular Screening Center, 2007):
Only a part is listed here, and it is no random draw. Calls of active or inactive are those of the source. Rule as the data show it: active = inhibition above about 19%; inactive = the rest.

Chains of the proteins cited; added tags and fusions are not shown.
UniProt Q05397, whole entry: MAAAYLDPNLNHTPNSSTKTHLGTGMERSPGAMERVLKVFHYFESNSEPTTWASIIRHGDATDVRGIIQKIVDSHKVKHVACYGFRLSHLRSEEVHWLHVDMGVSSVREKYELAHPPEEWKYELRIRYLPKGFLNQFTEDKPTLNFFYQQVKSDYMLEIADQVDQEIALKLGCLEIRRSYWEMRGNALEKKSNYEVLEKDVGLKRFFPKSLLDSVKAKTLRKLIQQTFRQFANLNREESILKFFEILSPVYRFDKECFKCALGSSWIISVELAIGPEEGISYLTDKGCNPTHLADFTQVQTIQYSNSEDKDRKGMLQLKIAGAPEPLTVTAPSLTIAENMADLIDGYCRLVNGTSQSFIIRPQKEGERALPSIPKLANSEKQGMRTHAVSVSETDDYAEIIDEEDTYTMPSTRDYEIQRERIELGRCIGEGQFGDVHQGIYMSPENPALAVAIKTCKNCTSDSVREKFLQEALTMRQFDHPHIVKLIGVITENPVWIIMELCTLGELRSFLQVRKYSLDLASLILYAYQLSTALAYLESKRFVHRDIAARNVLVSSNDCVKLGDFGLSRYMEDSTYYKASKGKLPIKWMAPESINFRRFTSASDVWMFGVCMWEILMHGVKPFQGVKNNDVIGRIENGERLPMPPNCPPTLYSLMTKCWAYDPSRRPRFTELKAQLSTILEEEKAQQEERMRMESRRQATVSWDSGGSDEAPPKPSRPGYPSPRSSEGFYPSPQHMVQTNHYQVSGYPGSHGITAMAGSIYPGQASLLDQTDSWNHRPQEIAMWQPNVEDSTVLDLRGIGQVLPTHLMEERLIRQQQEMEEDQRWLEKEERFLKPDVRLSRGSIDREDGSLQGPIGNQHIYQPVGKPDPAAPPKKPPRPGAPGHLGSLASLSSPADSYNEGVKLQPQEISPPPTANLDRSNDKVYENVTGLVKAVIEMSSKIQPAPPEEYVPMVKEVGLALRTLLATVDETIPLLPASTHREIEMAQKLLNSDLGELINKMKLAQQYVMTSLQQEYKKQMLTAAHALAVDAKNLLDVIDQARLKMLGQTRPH

Each compound was assayed against Focal adhesion kinase 1 (Homo sapiens) (UniProt Q05397) (assay: FAK kinase inhibitors, primary screen, biochemical (AID 727;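 also: 0% = DMSO and 100% = reference compound high control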)). Details: biochemical FAK kinase activity assay; stronger effect = higher value;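 tested at 7 µM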.

Row | Compound | inhibition
1 | c1ccc(CN2CCC(Nc3ccccc3)CC2)cc1 | inactive: 0.54%
2 | N/C(=N\O)c1c(N)no[n+]1[O-] | inactive: 3.01%
3 | CCOc1ncccc1C(=O)NCC1(N2CCOCC2)CCCCC1 | inactive: 4.35%
4 | CCC(CO)(C(=O)OC1CN2CCC1CC2)c1ccccc1 (stereo not given) | inactive: 6.03%
5 | COc1ccc(NC2CCN(CCc3ccccc3)CC2)c(OC)c1 | inactive: 3.73%
6 | O=C(NCC1(N2CCOCC2)CCCCC1)c1cc2ccccc2o1 | inactive: 1.99%
7 | O=C(OC1CN2CCC1CC2)C1c2ccccc2Oc2ccccc21 (stereo not given) | inactive: 4.47%
8 | CN1CCC(Nc2cccc(F)c2)CC1 | inactive: 3.59%
9 | N#CC1(Nc2ccccc2)CCN(CCc2ccccc2)CC1 | inactive: -0.45%
10 | O=C(NCC1(N2CCOCC2)CCCCC1)c1cc(=O)[nH]c2ccccc12 | inactive: -0.56%
